Assay results as given in patent US20110028463A1, “AMIDE COMPOUNDS” (Astellas Pharma Inc., priority 2007, published 2011).

Amino acid sequences for entries named in this document (tags omitted).
UniProt P43114, whole entry: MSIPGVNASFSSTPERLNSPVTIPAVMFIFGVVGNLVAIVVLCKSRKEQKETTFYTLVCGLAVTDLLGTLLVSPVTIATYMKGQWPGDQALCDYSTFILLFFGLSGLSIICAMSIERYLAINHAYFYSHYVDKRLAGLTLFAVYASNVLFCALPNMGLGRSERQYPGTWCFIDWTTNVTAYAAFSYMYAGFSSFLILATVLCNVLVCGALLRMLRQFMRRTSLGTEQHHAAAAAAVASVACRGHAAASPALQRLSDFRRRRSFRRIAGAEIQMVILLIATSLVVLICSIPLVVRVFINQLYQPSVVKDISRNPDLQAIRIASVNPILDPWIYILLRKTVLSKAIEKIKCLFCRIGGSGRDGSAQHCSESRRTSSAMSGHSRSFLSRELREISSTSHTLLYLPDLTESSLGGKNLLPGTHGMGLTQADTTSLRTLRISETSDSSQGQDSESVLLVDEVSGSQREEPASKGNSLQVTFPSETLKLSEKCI

Biological target: rat EP4 receptor (Rattus norvegicus, UniProt P43114)
Test: Evaluation test on rat EP4 receptor affinity ([3H]PGE2 binding assay)
Settings: read-out: rat EP4 receptor affinity (Ki); comparison compound, same test method as Table 1

- Ki: 48 nM
Structure (SMILES): C[C@H](NC(=O)c1cc(Cl)cnc1N(C)Cc1ccc(Cl)cc1)c1ccc(C(=O)O)cc1
